Test results reported in article PMC4914250, “Cancer therapeutic approach based on conformational stabilization of mutant p53 protein by small peptides” (Oncotarget, 2016).

System: mutp53
Experiment: Summary score of peptide functional screens
Conditions: overall score over conformation, DNA binding, viability and PCR screens

Sequence: LTFEHYWAQLTS [pCAP-8, synthesized peptide of the functional screen]
- SCORE: 0
